Laboratory results published in publication PMC8596843, “Platinum Cyclooctadiene Complexes with Activity against Gram‐positive Bacteria” (Chemmedchem, 2021).

Test system: human red blood cells
Test: Haemolysis assay
Type: cell-based
Settings: concentration inducing 50 % haemolysis
Method: As part of the CO‐ADD screening, all compounds that show any activity against a microbial strain are evaluated for their cytotoxicity against human embryonic kidney cells (HEK‐293) and for haemolysis against human red blood cells. None of the compounds tested for cytotoxicity (Pt1‐9 and Pd1) caused any significant cell death up to concentrations of 100 μM. […] We have also observed higher IC50 values for the methylated complexes Pt3 and Pt4 against HeLa cells in previous work.[16]
The resultant mid-log phase cultures were diluted
Gram-negative and Gram-positive bacteria, respectively.
final concentration range of 0.8 – 100 µM.
inhibitors as positive control.
Tamoxifen (Sigma T5648) was used
as internal control on each plate.
in a Neubauer haemocytometer.
incubated for 1 h at 37 °C, without shaking.
HC10 and HC50 (concentration at which 10%
for top, bottom and slope using Prism 8. […]

In the case of CC[C@H](C)[C@H](NC(=O)CN)C(=O)NCC(=O)N[C@@H](C)C(=O)N[C@H](C(=O)N[C@@H](CC(C)C)C(=O)N[C@@H](CCCCN)C(=O)N[C@H](C(=O)N[C@@H](CC(C)C)C(=O)N[C@H](C(=O)N[C@H](C(=O)NCC(=O)N[C@@H](CC(C)C)C(=O)N1CCC[C@H]1C(=O)N[C@@H](C)C(=O)N[C@@H](CC(C)C)C(=O)N[C@H](C(=O)N[C@@H](CO)C(=O)N[C@@H](Cc1c[nH]c2ccccc12)C(=O)N[C@H](C(=O)N[C@@H](CCCCN)C(=O)N[C@@H](CCCNC(=N)N)C(=O)N[C@@H](CCCCN)C(=O)N[C@@H](CCCNC(=N)N)C(=O)N[C@@H](CCC(N)=O)C(=O)N[C@@H](CCC(N)=O)C(N)=O)[C@@H](C)CC)[C@@H](C)CC)[C@@H](C)O)[C@@H](C)O)C(C)C)C(C)C [Melittin, reference compound], the “Haemolysis HC50” value is reported as 1.82 µM.
